{"source": "patent US20190014776A1", "about": "(priority 2017, published 2019)", "type": "physicochemical", "conditions": "relative to tank mix of CLARITY and CONTROLMAX; dicamba 1.2 wt. % a.e., glyphosate 2.4 wt. % a.e.; 35° C., 40% RH, 24 hours"}
{"compound": "CCCC[P+](CCCC)(CCCC)CCCC.COc1c(Cl)ccc(Cl)c1C(=O)[O-]", "note": "[TBP Dicamba, tetrabutylphosphonium (TBP) dicamba]", "values": [{"measurement": "Volatility Reduction", "result": 99.7, "unit": "%"}]}
